Like-named read-outs stand apart in the source and are kept apart here.
Tests used:
Shank1 PDZ [1] = biological target: T1, Shank1 PDZ (Homo sapiens, UniProt Q9Y566); settings: pH 7.45
SHANK-PDZ = biological target: T2, SHANK-PDZ (Homo sapiens, UniProt Q9Y566); assay: biochemical
T2 sequence (Q9Y566 656-762): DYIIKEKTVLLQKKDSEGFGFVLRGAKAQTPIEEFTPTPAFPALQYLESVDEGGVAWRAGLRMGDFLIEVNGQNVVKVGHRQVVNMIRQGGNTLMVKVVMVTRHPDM

Protein sequences, listed by entry. Tags and fused reporters are not part of them. Residues count along the entry.
UniProt P63165, 18-97, species assumed: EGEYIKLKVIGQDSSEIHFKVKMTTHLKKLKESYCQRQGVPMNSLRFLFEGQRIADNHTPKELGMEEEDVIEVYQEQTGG

Shank1 PDZ [2] = biological target: T1, Shank1 PDZ; assay: biochemical
SUMO-1 = biological target: T3, SUMO-1 (Homo sapiens, UniProt P63165); assay: biochemical; format: binding
T3 construct: The pet19b His-TEV-SUMO-1 (18-97) construct was over-expressed; His-TEV (N, cleaved yes); made in house; host or cells: E. coli Rosetta 2

Row | SMILES | IC50 (Shank1 PDZ [1]) | Kd (SHANK-PDZ) | IC50 (Shank1 PDZ [2]) | IC50 (SUMO-1)
1 | CC(=O)N[C@@H](CCC(=O)O)C(=O)N[C@@H](C)C(=O)N[C@@H](CCC(N)=O)C(=O)N[C@H](C(=O)N[C@@H](CCCNC(=N)N)C(=O)N[C@@H](CC(C)C)C(N)=O)[C@@H](C)O [CO2H-CONH2 GKAP] | did not inhibit | 256 ± 64.3 µM | > 1500 µM | –
2 | CC(=O)N[C@@H](CCC(=O)O)C(=O)N[C@@H](C)C(=O)N[C@@H](CCC(N)=O)C(=O)N[C@H](C(=O)N[C@@H](CCCNC(=N)N)C(=O)N[C@@H](CC(C)C)C(=O)O)[C@@H](C)O [GKAP] | – | 2.77 ± 0.15 µM | 11 ± 1 µM | –
3 | CC[C@H](C)[C@H](NC(=O)[C@H](CCC(=O)O)NC(=O)[C@H](CC(N)=O)NC(=O)[C@H](CC(=O)O)NC(C)=O)C(=O)N[C@@H](CCC(=O)O)C(=O)N[C@H](C(=O)N[C@H](C(=O)N[C@H](C(=O)N[C@H](C(=O)N[C@@H](Cc1c[nH]c2ccccc12)C(=O)N[C@@H](CCC(=O)O)C(=O)N[C@@H](CCCCN)C(=O)N[C@@H](CCCCN)C(N)=O)C(C)C)[C@@H](C)CC)[C@@H](C)CC)C(C)C [SIM] | – | – | – | 30 ± 1 µM

Source: PMC6804253, “Predicting and Experimentally Validating Hot-Spot Residues at Protein–Protein Interfaces” (ACS Chemical Biology, 2019)
